The data set can be described thus: Stability of test stimuli over the testing period (score per study visit day, linear regression). In kind it is physicochemical. The following applies: stimuli made once, stored at room temperature, used throughout four-month study. An excerpt:
To calculate the stability of SMELL-S (panel A) and SMELL-R (panel B), the median and interquartile range of testing score per study visit day were plotted. The slope of the data was fitted by linear regression, and analyzed for significant difference from a slope of zero, which would correspond to perfect stability across the testing period. Stimuli for each test were freshly made only once at the beginning of the study, stored at room temperature in a ventilated lab, and used throughout the study. Study visit days took place 2-3 times a week. We tested 75 subjects who performed each one of the 4 tests twice.
The disclosure includes a proviso that any compound or combination of compounds can be excluded from the claims of this application or patent, including but not necessarily limited to those compounds disclosed herein as “excluded” wherein the exclusion is for any reason, including but not limited to lateralization score or intensity-matching, or a combination thereof. […] In embodiments, stability is determined by the combination of compounds remaining suitable for using in a method described herein. […] The slope of the data was fitted by linear regression (but other statistical methods that will be apparent to those skilled in the art could also be used) and analyzed for significant difference from a slope of zero, which would correspond to perfect stability across the testing period. […]

In the case of butanol, the stability of stimuli entry was “not stable”.

Source of the values: patent US12364429B2, “Compositions and methods for a universal clinical test for olfactory dysfunction” (The Rockefeller University, priority 2017, dated 2025).
